# Experimental data taken from ChEMBL document CHEMBL2434899, “Peripherally selective diphenyl purine antagonist of the CB1 receptor” (J Med Chem, 2013).
# Protein sequences, listed by entry. Tags and fused reporters are not part of them.
# UniProt P21554, whole entry: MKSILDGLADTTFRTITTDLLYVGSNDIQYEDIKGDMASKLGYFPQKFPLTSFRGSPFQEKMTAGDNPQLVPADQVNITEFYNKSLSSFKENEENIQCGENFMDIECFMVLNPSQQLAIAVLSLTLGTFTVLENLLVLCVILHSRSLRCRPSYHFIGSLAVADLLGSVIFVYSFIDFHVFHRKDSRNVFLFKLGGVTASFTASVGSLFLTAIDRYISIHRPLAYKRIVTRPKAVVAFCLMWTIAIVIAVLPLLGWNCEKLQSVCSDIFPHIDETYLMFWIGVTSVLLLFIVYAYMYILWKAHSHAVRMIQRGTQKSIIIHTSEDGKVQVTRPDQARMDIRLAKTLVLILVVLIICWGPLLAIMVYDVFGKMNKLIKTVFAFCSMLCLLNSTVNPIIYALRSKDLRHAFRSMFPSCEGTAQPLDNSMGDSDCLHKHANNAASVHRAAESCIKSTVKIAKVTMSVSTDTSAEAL
# Molecular target: Cannabinoid receptor 1 (Homo sapiens, UniProt P21554)
# Assay: Antagonist activity at human CB1 receptor expressed in CHO-K1 cells by intracellular Ca2+ mobilization assay in presence of CP55940
# Type: functional, cell-based
# Procedure, shortened: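 CHO-K1 cells co-expressing human CB1 and Gαq16; intracellular calcium flux read with fluorescent dye on a 96-well plate reader. Rightward shift of the CP55940 concentration-response curve gives Ke = [ligand]/(DR−1), DR being the CP55940 EC50 ratio with versus without test agent. Averages of 3–6 measurements.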
smiles,measurement,value
O=C(NC1CCN(c2ncnc3c2nc(-c2ccccc2Cl)n3-c2ccc(Cl)cc2)CC1)Oc1ccccc1,Ke,4 nM
